Test results taken from ChEMBL document CHEMBL1131628 (J Med Chem, 1998).

Protein sequences, listed by entry. Tags and fused reporters are not part of them.
UniProt P26684, whole entry: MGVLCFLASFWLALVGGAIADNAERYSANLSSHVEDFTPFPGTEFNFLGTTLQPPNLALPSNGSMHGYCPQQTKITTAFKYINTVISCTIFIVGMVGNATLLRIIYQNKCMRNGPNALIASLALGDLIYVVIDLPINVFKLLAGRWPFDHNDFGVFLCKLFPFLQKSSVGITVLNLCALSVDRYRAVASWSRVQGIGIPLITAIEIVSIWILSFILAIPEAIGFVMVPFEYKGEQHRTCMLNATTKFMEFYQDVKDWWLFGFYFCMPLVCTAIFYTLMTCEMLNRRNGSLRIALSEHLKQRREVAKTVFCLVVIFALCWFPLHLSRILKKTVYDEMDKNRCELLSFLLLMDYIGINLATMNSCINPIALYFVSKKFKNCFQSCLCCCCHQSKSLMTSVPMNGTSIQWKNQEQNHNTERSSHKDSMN

Biological target: Endothelin-1 receptor (Rattus norvegicus, UniProt P26684)
Test: Binding affinity for endothelin A receptor by measuring its ability to displace [125I]ET1 from prolactin secreting rat pituitary cells(MMQ)
Type: cell-based, Pituitary gland cell

- IC50: 1300 nM
SMILES: CCCCN(CCCC)C(=O)CN1C[C@H](c2ccc3c(c2)OCO3)[C@@H](C(=O)O)[C@@H]1C(C)(C)CCCC
